Assay results taken from EP4778588A2, “ENZYMATICALLY CLEAVABLE LINKER AND LIGAND-ERIBULIN CONJUGATE CONTAINING SAME” (priority 2022, dated 2024).

Tested on: SK-BR-3 cell line (human breast cancer cells)
Experiment: Cell viability test (same method as for Calu-6) in SK-BR-3 cells
Assay type: cell-based
Details: average DAR of 2 to 3, read-out: EC/IC50 values for cell viability
Experimental: Human Calu-6 cells (manufacturer: Procell, product code: CL-327, human lung cancer cells) were resuscitated and seeded into a 96-well culture plate. The culture medium used was DMEM/F12 (manufacturer: Hyclone, product code: SH30023.01), supplemented with 10% FBS (manufacturer: Gibco, product code: 10099141). Each well contained 2,500 cells in 150 µl of medium. The plate was incubated at 37°C in a 5% CO2 incubator. Approximately 20 hours later, 50 µl of medium containing different antibody-drug conjugates were added to each well, setting the final drug concentrations at 0 to 100 nM across 12 dilution gradients (initial concentration: 100 nM; subsequent 5-fold serial dilutions across 10 gradients; last gradient containing no drug, and each sample was tested in duplicate wells). […] After a 2-minute reaction, fluorescence intensity was measured using a Tecan Spark instrument, following the reagent kit's recommended protocol. […] EC/IC50 values were calculated using four-parameter fitting.
Further, following the above examples, antibody-drug conjugates (ADCs) of Trastuzumab and Bemarituzumab conjugated with the linker-toxin MC-VAGGFG-PAB-Eribulin were prepared for validation. […] Activity was measured using the SK-BR-3 cell line (human breast cancer cells) and KATO III cell line (human gastric cancer cells).

Substance “Trastuzumab MC-VAGGFG-PAB-Eribulin: Trastuzumab conjugated with the linker-toxin MC-VAGGFG-PAB-Eribulin” has an IC50 of 0.032 nM.
